Assay results reported in ChEMBL document CHEMBL1132473, “Inhibition and substrate activity of conformationally rigid vigabatrin analogues with gamma-aminobutyric acid aminotransferase” (J Med Chem, 1999).

Test: Compound was evaluated for kinetic constant Kcat/Km

NCCCC(=O)O
k cat/Km: 20.4 m M-1 min-1
